We go through three compounds from patent EP4840895A1, “PEGYLATED BORON-CONTAINING TRYPTOPHAN DERIVATIVE AND PREPARATION METHOD THEREFOR, PHARMACEUTICAL COMPOSITION CONTAINING PEGYLATED BORON-CONTAINING TRYPTOPHAN DERIVATIVE, AND USE THEREOF” (dated 2026).

Data set [1] can be described thus: aqueous solubility comparison (Table 1).
Data set [2] in a line: size-distribution measurement (dynamic light scattering, laser scattering particle size analyzer). The settings on record: 1 mg dissolved in CH3CH2OH, ultrasonic vibration 5 min. The method, then:
The samples TB-6-BTMe, TB-6-BT-PEG200, TB-6-BT-PEG600, PEG200 and PEG600 were each taken 1 mg for dissolving in CH3CH2OH in a vial (3 mL) followed by ultrasonic vibration for 5 min. The particle size measurement was carried out using Zetasizer Ultra-Red mediating through a laser irradiation to extract the information of the diffraction patterns. The data was manipulated by numerical analysis through the software of manufacturer. The size distribution was graphed using GraphPad Prism 5 software.

boronophenyl alanine: the solubility entry in data set [1] (40 µL EtOH +100 µL H2O (30% EtOH)) and in data set [1] (EtOH + H2O (15% EtOH)) was “insoluble” each time.
In the case of `COC(=O)C(Cc1cn(C(=O)OC(C)(C)C)c2cc(B3OC(C)(C)C(C)(C)O3)ccc12)N(C(=O)OC(C)(C)C)C(=O)OC(C)(C)C` (stereo not shown), the “average diameter (ID)” value in data set [2] came to 78.7 nm.
Consider `CC(C)(C)OC(=O)N(C(=O)OC(C)(C)C)C(Cc1cn(C(=O)OC(C)(C)C)c2cc(B3OC(C)(C)C(C)(C)O3)ccc12)C(=O)O` (stereo not shown), for which the solubility entry in data set [1] (EtOH + H2O (15% EtOH)) was “insoluble”.
